Ab-95 light chain CDR variants: yeast mating affinities

The target is the same throughout: PDVDLGDISGINAS, from the HR2 region of SARS-CoV-2 spike.

Each scFv is VH, a (GGGGS)3 linker, VL, as in the parent Ab-95, and differs from it in the CDRs of the light chain only.
VH: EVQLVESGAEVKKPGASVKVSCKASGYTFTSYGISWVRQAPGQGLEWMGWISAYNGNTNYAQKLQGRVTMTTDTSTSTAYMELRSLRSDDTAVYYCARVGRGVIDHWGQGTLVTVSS
VL: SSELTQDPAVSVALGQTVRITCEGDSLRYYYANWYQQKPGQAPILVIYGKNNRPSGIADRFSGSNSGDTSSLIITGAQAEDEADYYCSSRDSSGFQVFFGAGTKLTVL

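Phage display of a naive human antibody library on the peptide gave the parent. Library AAYL52 holds single substitutions and randomly drawn double and triple substitutions in the CDRs. The assay is AlphaSeq: two haploid yeast populations carry antibody and antigen on their surface. After mating in shaken culture at 30 °C for 16 h, diploids were selected and their barcode pairs sequenced. Read counts were normalised to the haploid input and turned into Kd by a linear fit to BCL2-family pairs of known affinity, for each replicate. The assay was run in three technical replicates.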

Each variant's VL is given in full. Values are log10 of the apparent Kd in nM; lower means stronger binding. The mean shown is taken over the replicates in which the pair was detected. An entry "nd" has no value in the source: the pair was not observed among the diploids in that replicate. This suggests poor binding but is not conclusive. Parent in this assay: reference entry 2.31, copy in this library 2.25. Empty control strains, which show no peptide, gave a signal in 28% of pairings with library AAYL52; the median was 3.91 and 95% of these signals were weaker than 2.90. No background was subtracted. The control count says in how many pairings with the empty strains this scFv gave a signal, with their mean in brackets.

VL | log10 Kd, replicates | mean log10 Kd (nM) | signal with controls
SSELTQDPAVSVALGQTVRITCFGDSLRYYYANWYQQKPGQAPILVIYGKNNRFSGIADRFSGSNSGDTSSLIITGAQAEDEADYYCSSRGSSGFQVFFGAGTKLTVL | 4.46 / nd / nd | 4.46 | 1/9 (3.40)
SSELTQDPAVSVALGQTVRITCEGDSLRYYYANWYQQKPGQAPILVIYGKNNMPSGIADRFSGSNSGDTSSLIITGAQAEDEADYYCSSRGSSGFGVFFGAGTKLTVL | 3.71 / 3.72 / 3.84 | 3.75 | 3/9 (3.85)
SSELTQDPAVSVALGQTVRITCEGDSLRYYYANWYQQKPGQAPILVIYGKNNRPLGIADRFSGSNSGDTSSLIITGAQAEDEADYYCSSRDSSGFQVKFGAGTKLTVL | 2.70 / 2.58 / 1.97 | 2.42 | 0/9
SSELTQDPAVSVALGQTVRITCEGDSLRYYTRNWYQQKPGQAPILVIYGKNNRPSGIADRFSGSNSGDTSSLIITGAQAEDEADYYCSSRDSSGFYVFFGAGTKLTVL | nd / 4.10 / 3.91 | 4.00 | 2/9 (3.50)
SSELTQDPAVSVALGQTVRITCEGDGLRDYYANWYQQKPGQAPILVIYGKNNRPSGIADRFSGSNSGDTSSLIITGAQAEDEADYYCSSRDSSGFQAFFGAGTKLTVL | 4.29 / 4.35 / nd | 4.32 | 5/9 (3.73)
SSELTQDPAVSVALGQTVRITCEGDSLRYYHYNWYQQKPGQAPILVIYGKNNDPSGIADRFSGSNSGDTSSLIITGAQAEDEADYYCSSRDSSGFQVFFGAGTKLTVL | 5.28 / nd / nd | 5.28 | 4/9 (4.11)
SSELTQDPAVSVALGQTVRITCEGDSLRYYYDNWYQQKPGQAPILVIYYKNNRPSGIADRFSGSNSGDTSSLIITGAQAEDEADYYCSSRDESGFQVFFGAGTKLTVL | nd / 4.02 / nd | 4.02 | 3/9 (3.80)
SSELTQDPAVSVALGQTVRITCEPDSLRYYYANWYQQKPGQAPILVIYGKNNRPSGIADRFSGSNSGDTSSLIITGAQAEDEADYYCSSRDKSGFQVNFGAGTKLTVL | 3.38 / 3.35 / nd | 3.36 | 2/9 (3.78)
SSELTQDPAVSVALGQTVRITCEGDSLAYYYANWYQQKPGQAPILVIYGVNNRPSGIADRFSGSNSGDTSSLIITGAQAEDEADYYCSSRDMSGFQVFFGAGTKLTVL | 3.73 / 3.42 / 2.73 | 3.29 | 4/9 (4.21)
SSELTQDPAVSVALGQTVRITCEGDSLTYYYANWYQQKPGQAPILVIYGKNNRPSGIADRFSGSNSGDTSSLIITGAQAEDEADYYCSARDSSGFQVWFGAGTKLTVL | 2.14 / 2.20 / 1.80 | 2.05 | 6/9 (4.33)
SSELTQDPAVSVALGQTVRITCEGDSLRYYYANWYQQKPGQAPILVIYGKNNRPSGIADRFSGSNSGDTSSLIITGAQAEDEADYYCSPRDSKGFQVRFGAGTKLTVL | 2.27 / 2.04 / 1.79 | 2.03 | 3/9 (3.90)
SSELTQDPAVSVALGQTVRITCEGDSLRYYYANWYQQKPGQAPILVIYGMNNRPSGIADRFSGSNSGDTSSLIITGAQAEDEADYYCQSRDSWGFQVFFGAGTKLTVL | nd / 2.94 / 3.41 | 3.18 | 4/9 (4.05)
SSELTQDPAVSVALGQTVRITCEGDSLRYYYANWYQQKPGQAPILVIYGQNNRPFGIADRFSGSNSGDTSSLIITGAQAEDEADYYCSERDSSGFQVFFGAGTKLTVL | 3.67 / 2.87 / nd | 3.27 | 4/9 (4.36)
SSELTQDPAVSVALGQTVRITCEGDSLRYYYANWYQQKPGQAPILVIYGKLNRPSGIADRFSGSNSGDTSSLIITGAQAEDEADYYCSSRDSFGFQVRFGAGTKLTVL | nd / nd / nd | nd | 0/9
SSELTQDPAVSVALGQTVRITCEGDSLRYYNAYWYQQKPGQAPILVIYGKNNRRSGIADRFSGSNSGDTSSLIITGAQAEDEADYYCSSRDSSGFQVFFGAGTKLTVL | 3.29 / 2.40 / 3.30 | 3.00 | 0/9
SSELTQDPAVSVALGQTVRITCEGDSLRYYYANWYQQKPGQAPILVIYGQNNRPSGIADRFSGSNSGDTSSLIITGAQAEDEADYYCFARDSSGFQVFFGAGTKLTVL | 2.21 / 2.58 / 3.10 | 2.63 | 4/9 (4.12)
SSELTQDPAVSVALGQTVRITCEGDPLRYYYANWYQQKPGQAPILVIYGKNNRPSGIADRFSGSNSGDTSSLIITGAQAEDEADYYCSSRNSSGMQVFFGAGTKLTVL | nd / 3.31 / 4.84 | 4.07 | 3/9 (4.20)
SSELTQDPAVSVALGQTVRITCEGDSLFYYIANWYQQKPGQAPILVIYGKNNRPAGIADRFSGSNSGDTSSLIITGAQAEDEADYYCSSRDSSGFQVFFGAGTKLTVL | 3.48 / 4.02 / 3.12 | 3.54 | 4/9 (4.32)
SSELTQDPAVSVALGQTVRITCEGDSLRYVPANWYQQKPGQAPILVIYGKNNLPSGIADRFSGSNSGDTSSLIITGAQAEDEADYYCSSRDSSGFQVFFGAGTKLTVL | 2.29 / 2.26 / 2.29 | 2.28 | 3/9 (4.24)
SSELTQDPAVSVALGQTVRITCEGWSLRYYYANWYQQKPGQAPILVIYIKNNRPSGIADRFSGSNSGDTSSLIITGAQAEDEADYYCSSVDSSGFQVFFGAGTKLTVL | 4.55 / 5.63 / nd | 5.09 | 3/9 (3.47)
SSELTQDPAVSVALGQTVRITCEGDTLRYYYHNWYQQKPGQAPILVIYGKHNRPSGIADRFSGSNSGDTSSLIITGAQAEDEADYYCSSRDSSGFQVFFGAGTKLTVL | nd / nd / 3.08 | 3.08 | 3/9 (4.58)
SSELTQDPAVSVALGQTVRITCEGDSLRYYYANWYQQKPGQAPILVIYGKNNRPSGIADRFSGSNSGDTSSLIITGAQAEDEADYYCCSRDSSGWQVFFGAGTKLTVL | 3.93 / nd / nd | 3.93 | 1/9 (5.34)

Excerpt, the first 3 entries:

VL | log10 Kd, replicates | mean log10 Kd (nM) | signal with controls
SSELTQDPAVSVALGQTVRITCFGDSLRYYYANWYQQKPGQAPILVIYGKNNRFSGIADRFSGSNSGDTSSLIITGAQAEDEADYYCSSRGSSGFQVFFGAGTKLTVL | 4.46 / nd / nd | 4.46 | 1/9 (3.40)
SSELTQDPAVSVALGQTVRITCEGDSLRYYYANWYQQKPGQAPILVIYGKNNMPSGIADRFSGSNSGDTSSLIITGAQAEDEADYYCSSRGSSGFGVFFGAGTKLTVL | 3.71 / 3.72 / 3.84 | 3.75 | 3/9 (3.85)
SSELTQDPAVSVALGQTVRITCEGDSLRYYYANWYQQKPGQAPILVIYGKNNRPLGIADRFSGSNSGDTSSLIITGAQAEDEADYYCSSRDSSGFQVKFGAGTKLTVL | 2.70 / 2.58 / 1.97 | 2.42 | 0/9

Reference: Engelhart et al. 2022, doi:10.1038/s41597-022-01779-4. File: FLAb, binding data.